Like-named read-outs stand apart in the source and are kept apart here.
Tested on: mice
Type: in vivo
Conditions: pos

## 3,3′,4′,5-quadrahydroxystilbene-4′-O-β-D-glucopyranoside [Compound E1]
Mice ♀
  MTD: 5625 mg/kg
Mice ♂
  MTD: 4219 mg/kg
